# Molecular target: rat NaP2b (SLC34A2) (Rattus norvegicus, UniProt Q9JJ09)
# Amino acid sequences for entries named in this document (tags omitted).
# UniProt Q9JJ09, whole entry: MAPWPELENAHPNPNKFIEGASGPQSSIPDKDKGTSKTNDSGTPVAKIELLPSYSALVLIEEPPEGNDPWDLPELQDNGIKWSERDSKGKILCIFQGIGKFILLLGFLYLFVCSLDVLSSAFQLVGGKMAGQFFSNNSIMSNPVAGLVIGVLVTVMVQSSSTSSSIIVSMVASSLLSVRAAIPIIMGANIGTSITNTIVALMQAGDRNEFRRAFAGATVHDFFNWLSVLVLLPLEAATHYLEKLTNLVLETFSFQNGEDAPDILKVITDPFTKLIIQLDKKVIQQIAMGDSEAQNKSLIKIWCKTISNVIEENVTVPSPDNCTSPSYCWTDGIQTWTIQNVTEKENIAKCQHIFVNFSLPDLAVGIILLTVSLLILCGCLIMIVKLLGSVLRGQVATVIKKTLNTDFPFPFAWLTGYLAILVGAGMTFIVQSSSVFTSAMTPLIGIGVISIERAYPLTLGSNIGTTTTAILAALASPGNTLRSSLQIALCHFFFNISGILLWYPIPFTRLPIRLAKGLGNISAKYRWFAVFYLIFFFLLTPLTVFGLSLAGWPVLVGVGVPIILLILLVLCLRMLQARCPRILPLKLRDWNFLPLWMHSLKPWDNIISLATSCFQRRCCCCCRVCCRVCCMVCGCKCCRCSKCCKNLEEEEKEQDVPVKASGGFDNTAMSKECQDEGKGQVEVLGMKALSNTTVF
# Assay: NaP2b-mediated Pi transport: 33P phosphate uptake into transfected HEK293 cells
# Conditions: 100 uM KH2PO4, PiT-silencing agent
compound,measurement,value
O=C(O)CCSCc1cccc(C(=O)Nc2ccc(N3CCCCC3)cc2C(=O)Nc2cn(-c3cccc(C(F)(F)F)c3)cn2)c1,pIC50 range for rat Nap2b,5.1-6.0

# Source: patent publication US9289430B2, “Compounds and methods for inhibiting phosphate transport” (Ardelyx, Inc., priority 2010, dated 2016)
